Measurements from patent US12528818B2, “Compositions and methods for inhibition of RAS” (Leidos Biomedical Research, Inc., priority 2021, dated 2026).
Blank lines part the entries; values can stand above or below the compound they belong to.

Assays:
[1] = target: T1, GTP-loaded KRAS4b (amino acids 1-169) G12C/C118S protein (Homo sapiens, UniProt P01116, C118S/G12C); assay: Covalent cysteine 12 modification by MALDI-TOF MS, GTP-loaded KRAS G12C; type: biochemical; details: 15 minutes reaction time, compound 95 or later using 1 μM proteins
T1 construct: KRAS4b (amino acids 1-169) G12C/C118S protein; made in house

[2] = target: GppNHp-loaded KRAS4b (amino acids 1-169) G12C/C118S protein (Homo sapiens, UniProt P01116, C118S/G12C); assay: Covalent cysteine 12 modification by MALDI-TOF MS, GppNHp-loaded KRAS G12C; type: biochemical; details: 15 minutes reaction time, compound 95 or later using 1 μM proteins
[3] = target: Avi-KRAS G12C (1-169) GppNHp/RAF1 RBD-3xFLAG (52-151) (Homo sapiens, UniProt P01116, G12C); assay: biochemical; details: Raf1-GppNHp-KRAS G12C disruption, Raf1 RBD-KRAS G12C-GppNHp disruption assay IC50
[4] = target: GDP-loaded KRAS4b (amino acids 1-169) G12C/C118S protein (Homo sapiens, UniProt P01116, C118S/G12C); assay: Covalent cysteine 12 modification by MALDI-TOF MS, GDP-loaded KRAS G12C; type: biochemical; details: 15 minutes reaction time, compound 95 or later using 1 μM proteins

Compound: C=CC(=O)N1C[C@H](C)N(c2nc(OC[C@@H]3CCCN3C)nc3c(F)c(-c4ccc(F)c5sc(N)c(C#N)c45)c(C(F)(F)F)cc23)C[C@H]1C (single isomer, unassigned) [Compound 457]
GTP-KRAS G12C percent of modification [1]: D (percent of modification <10%) | GppNHp-KRAS G12C percent of modification [2]: D (percent of modification <10%) | IC50 [3]: > 20000 nM | GDP-KRAS G12C percent of modification [4]: D (percent of modification <10%)

Compound: C=CC(=O)N1C[C@@H](F)[C@@H](N(C)c2nc(OC[C@@H]3C[C@@H](OC)CN3C)nc3cc(-c4ccc(F)c5sc(N)nc45)c(C(F)(F)F)cc23)C1 [Compound 350]
GTP-KRAS G12C percent of modification [1]: C (10%≤percent of modification <50%) | GppNHp-KRAS G12C percent of modification [2]: A (percent of modification ≥70%) | IC50 [3]: < 500 nM | GDP-KRAS G12C percent of modification [4]: A (percent of modification ≥70%)

Compound: C=CC(=O)N1[C@H](C)CN(c2nc(OC[C@@]34CCCN3C[C@H](F)C4)nc3c(F)c(-c4ccc(F)c5sc(N)c(C#N)c45)c(C(F)(F)F)cc23)C[C@H]1C [Compound 330]
GTP-KRAS G12C percent of modification [1]: D (percent of modification <10%) | GppNHp-KRAS G12C percent of modification [2]: D (percent of modification <10%) | IC50 [3]: 500 to 5000 nM | GDP-KRAS G12C percent of modification [4]: C (10%≤percent of modification <50%)

Compound: C=CC(=O)N1CCC(N(CC)c2nc(OC[C@@H]3CCCN3C)nc3c(F)c(-c4ccc(F)c5sc(N)c(C#N)c45)c(C(F)(F)F)cc23)[C@H]1C (stereo partly shown) [Compound 396]
GTP-KRAS G12C percent of modification [1]: B (50≤percent of modification <70%) | GppNHp-KRAS G12C percent of modification [2]: B (50≤percent of modification <70%) | IC50 [3]: < 500 nM | GDP-KRAS G12C percent of modification [4]: A (percent of modification ≥70%)

Compound: C=CC(=O)N1C[C@@H](F)[C@@H](N(C)c2nc(OC[C@@]34CCCN3C[C@H](F)C4)nc3cc(-c4ccc(F)c5sc(N)nc45)c(C(F)(F)F)cc23)C1 [Compound 317]
GTP-KRAS G12C percent of modification [1]: A (percent of modification ≥70%) | GppNHp-KRAS G12C percent of modification [2]: A (percent of modification ≥70%) | IC50 [3]: < 500 nM | GDP-KRAS G12C percent of modification [4]: A (percent of modification ≥70%)

Compound: C=CC(=O)N1C[C@H](C)N(c2nc(N3CC(N4CC(O)C4)C3)nc3c(F)c(-c4ccc(F)c5sc(N)c(C#N)c45)c(C(F)(F)F)cc23)C[C@H]1C [Compound 328]
GTP-KRAS G12C percent of modification [1]: D (percent of modification <10%) | GppNHp-KRAS G12C percent of modification [2]: C (10%≤percent of modification <50%) | IC50 [3]: < 500 nM | GDP-KRAS G12C percent of modification [4]: C (10%≤percent of modification <50%)

Compound: C=CC(=O)N1C[C@@H](F)[C@@H](N(CC)c2nc(OC[C@@]34CCCN3C[C@H](F)C4)nc3c(F)c(-c4ccc(F)c5sc(N)c(C#N)c45)c(Cl)cc23)C1 [Compound 368]
GTP-KRAS G12C percent of modification [1]: A (percent of modification ≥70%) | GppNHp-KRAS G12C percent of modification [2]: A (percent of modification ≥70%) | IC50 [3]: < 500 nM | GDP-KRAS G12C percent of modification [4]: A (percent of modification ≥70%)

Compound: C=CC(=O)N1C[C@H](C)N(c2nc(OC[C@@H]3CCCN3C)nc3c(F)c(-c4ccc(F)c5sc(N)c(C#N)c45)c(C(F)(F)F)cc23)C[C@H]1C [Compound 363, 4-(4-((2S,5R)-4-acryloyl-2,5-dimethylpiperazin-1-yl)-8-fluoro-2-(((S)-1-methylpyrrolidin-2-yl)methoxy)-6-(trifluoromethyl)quinazolin-7-yl)-2-amino-7-fluorobenzo[b]thiophene-3-carbonitrile]
GTP-KRAS G12C percent of modification [1]: C (10%≤percent of modification <50%) | GppNHp-KRAS G12C percent of modification [2]: A (percent of modification ≥70%) | IC50 [3]: < 500 nM | GDP-KRAS G12C percent of modification [4]: A (percent of modification ≥70%)

Compound: C=CC(=O)N1C[C@H](N(C)c2nc(OC[C@@]34CCCN3C[C@H](F)C4)nc3c(F)c(-c4ccc(F)c5sc(N)nc45)c(C(F)(F)F)cc23)C2(CC2)C1 [Compound 294]
GTP-KRAS G12C percent of modification [1]: C (10%≤percent of modification <50%) | GppNHp-KRAS G12C percent of modification [2]: C (10%≤percent of modification <50%) | IC50 [3]: 500 to 5000 nM | GDP-KRAS G12C percent of modification [4]: A (percent of modification ≥70%)

Compound: C=CC(=O)N1C[C@@H](C)[C@@H](N(C)c2nc(OC[C@@]34CCCN3C[C@H](F)C4)nc3c(F)c(-c4ccc(F)c5sc(N)nc45)c(C(F)(F)F)cc23)C1 [Compound 292]
GTP-KRAS G12C percent of modification [1]: C (10%≤percent of modification <50%) | GppNHp-KRAS G12C percent of modification [2]: C (10%≤percent of modification <50%) | IC50 [3]: < 500 nM | GDP-KRAS G12C percent of modification [4]: B (50≤percent of modification <70%)

Compound: C=CC(=O)N1C[C@@H](F)[C@@H](N(CC)c2nc(OC[C@@]34CCCN3C[C@H](F)C4)nc3cc(-c4ccc(F)c5sc(N)c(C#N)c45)c(C(F)(F)F)cc23)C1 [Compound 375]
GTP-KRAS G12C percent of modification [1]: B (50≤percent of modification <70%) | GppNHp-KRAS G12C percent of modification [2]: B (50≤percent of modification <70%) | IC50 [3]: < 500 nM | GDP-KRAS G12C percent of modification [4]: B (50≤percent of modification <70%)

Compound: C=CC(=O)N1CC[C@@H](N(C)c2nc(OC[C@@]34CCCN3C[C@H](F)C4)nc3cc(-c4c(F)cc(F)c5sc(N)nc45)c(C(F)(F)F)cc23)C1 [Compound 305]
GTP-KRAS G12C percent of modification [1]: A (percent of modification ≥70%) | GppNHp-KRAS G12C percent of modification [2]: A (percent of modification ≥70%) | IC50 [3]: < 500 nM | GDP-KRAS G12C percent of modification [4]: A (percent of modification ≥70%)

More lines, now with the values ahead:

GTP-KRAS G12C percent of modification [1]: C (10%≤percent of modification <50%) | GppNHp-KRAS G12C percent of modification [2]: B (50≤percent of modification <70%) | IC50 [3]: < 500 nM | GDP-KRAS G12C percent of modification [4]: B (50≤percent of modification <70%)
Compound: C=CC(=O)N1CC[C@@H](N(C)c2nc(OC[C@@]34CCCN3C[C@H](F)C4)nc3c(F)c(-c4ccc(F)c5sc(N)c(C#N)c45)c(C(F)(F)F)cc23)[C@H]1CF [Compound 337]

GTP-KRAS G12C percent of modification [1]: A (percent of modification ≥70%) | GppNHp-KRAS G12C percent of modification [2]: A (percent of modification ≥70%) | IC50 [3]: < 500 nM | GDP-KRAS G12C percent of modification [4]: A (percent of modification ≥70%)
Compound: C=CC(=O)N1CC[C@@H]2[C@H]1CN2c1nc(OC[C@@]23CCCN2C[C@H](F)C3)nc2c(F)c(-c3ccc(F)c4sc(N)c(C#N)c34)c(C(F)(F)F)cc12 [Compound 339]

GTP-KRAS G12C percent of modification [1]: B (50≤percent of modification <70%) | GppNHp-KRAS G12C percent of modification [2]: B (50≤percent of modification <70%) | IC50 [3]: < 500 nM | GDP-KRAS G12C percent of modification [4]: B (50≤percent of modification <70%)
Compound: C=CC(=O)N1C[C@@H](F)[C@@H](N(CC)c2nc(OC[C@@]34CCCN3C[C@H](F)C4)nc3c(F)c(-c4ccc(F)c5sc(N)c(C#N)c45)c(C(F)(F)F)cc23)C1 [Compound 362]

GTP-KRAS G12C percent of modification [1]: A (percent of modification ≥70%) | GppNHp-KRAS G12C percent of modification [2]: A (percent of modification ≥70%) | IC50 [3]: < 500 nM | GDP-KRAS G12C percent of modification [4]: A (percent of modification ≥70%)
Compound: C=CC(=O)N1C[C@@H](F)[C@@H](N(C)c2nc(OC[C@@]34CCCN3C[C@H](F)C4)nc3cc(-c4ccc(F)c5sc(N)c(C#N)c45)c(C(F)(F)F)cc23)C1 [Compound 315, 4-(4-(((3S,4R)-1-acryloyl-4-fluoropyrrolidin-3-yl)(methyl)amino)-2-(((2R,7aS)-2-fluorotetrahydro-1H-pyrrolizin-7a(5H)-yl)methoxy)-6-(trifluoromethyl)quinazolin-7-yl)-2-amino-7-fluorobenzo[b]thiophene-3-carbonitrile]

GTP-KRAS G12C percent of modification [1]: B (50≤percent of modification <70%) | GppNHp-KRAS G12C percent of modification [2]: B (50≤percent of modification <70%) | IC50 [3]: < 500 nM | GDP-KRAS G12C percent of modification [4]: B (50≤percent of modification <70%)
Compound: C=CC(=O)N1C[C@@H](F)[C@@H](N(CC)c2nc(OC[C@@]34CCCN3C[C@H](F)C4)nc3cc(-c4ccc(F)c5sc(N)c(C#N)c45)c(Cl)cc23)C1 [Compound 370]

GTP-KRAS G12C percent of modification [1]: B (50≤percent of modification <70%) | GppNHp-KRAS G12C percent of modification [2]: A (percent of modification ≥70%) | IC50 [3]: < 500 nM | GDP-KRAS G12C percent of modification [4]: B (50≤percent of modification <70%)
Compound: C=CC(=O)N1CC[C@@H](N(C)c2nc(OCC3(CN4CCOCC4)CC3)nc3c(F)c(-c4ccc(F)c5sc(N)nc45)c(C(F)(F)F)cc23)C1 [Compound 287]

GTP-KRAS G12C percent of modification [1]: B (50≤percent of modification <70%) | GppNHp-KRAS G12C percent of modification [2]: A (percent of modification ≥70%) | IC50 [3]: < 500 nM | GDP-KRAS G12C percent of modification [4]: A (percent of modification ≥70%)
Compound: C=CC(=O)N1CCN(c2nc(OC[C@@]34CCCN3C[C@H](F)C4)nc3c(F)c(-c4ccc(F)c5sc(N)c(C#N)c45)c(C(F)(F)F)cc23)C[C@H]1C [Compound 318]
